Consider 21 molecules from ChEMBL document CHEMBL1124221.

The chains behind the UniProt entries cited, without tags or fusion partners.
UniProt P97266, whole entry: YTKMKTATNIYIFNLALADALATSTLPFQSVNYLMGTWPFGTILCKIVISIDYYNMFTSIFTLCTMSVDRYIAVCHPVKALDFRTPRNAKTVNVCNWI
UniProt P41144, whole entry: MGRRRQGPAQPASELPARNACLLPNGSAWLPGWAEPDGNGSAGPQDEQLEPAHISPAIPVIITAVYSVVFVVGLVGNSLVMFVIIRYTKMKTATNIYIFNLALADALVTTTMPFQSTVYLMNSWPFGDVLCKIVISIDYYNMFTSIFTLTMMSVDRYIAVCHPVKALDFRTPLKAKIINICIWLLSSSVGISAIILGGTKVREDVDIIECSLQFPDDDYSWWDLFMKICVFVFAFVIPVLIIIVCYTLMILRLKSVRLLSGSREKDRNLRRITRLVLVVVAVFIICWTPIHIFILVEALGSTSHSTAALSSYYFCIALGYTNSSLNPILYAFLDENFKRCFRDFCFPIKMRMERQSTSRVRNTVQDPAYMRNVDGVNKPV

The target of one assay is Mu-type opioid receptor (Cavia porcellus, UniProt P97266). Description: Binding affinity for the Opioid receptor mu 1.
Assay [1] addresses Kappa-type opioid receptor (Cavia porcellus, UniProt P41144). Description: Binding affinity for the Opioid receptor kappa 1.
For assay [2], the system named is Rattus norvegicus. Description: Rat-paw pressure assay was measured maximum possible analgesic effect after sc administration.
Assay [3] has as its system Rattus norvegicus. Description: Dose (po) required to produce 50% of the maximum possible analgesic effect, evaluated by rat-paw pressure assay.
The test system of assay [4] is Rattus norvegicus. Description: Dose (sc) required to produce 50% of the maximum possible analgesic effect, evaluated by rat-paw pressure assay.

SMILES strings stand for the structures. Only a part of the results on these compounds is given; other tests are left out.

For `Cc1cc(OCC(=O)N(C)[C@@H]2CCCC[C@H]2N2CCCCCC2)cc(C)c1Cl`, the Ki – broadly, the equilibrium dissociation constant of an inhibitor or competing ligand from its target – at Mu-type opioid receptor amounted to 460 nM; in assay [1], 4 nM.
For the molecule `CN(C(=O)COc1ccc(Cl)c(Cl)c1)[C@@H]1CCCC[C@H]1N1CCCC1.Cl`, the MPE50 in the assay with Rattus norvegicus [2] was found to be 240 mg/kg.
As for `CN(C(=O)COc1cc(Cl)cc(Cl)c1)[C@@H]1CCCC[C@H]1N1CCCCCC1`, the results for the Ki (on Mu-type opioid receptor; in assay [1]) were 7900 nM and 72 nM, respectively.
Consider `CN(C(=O)COc1cc(Cl)c(Cl)c(Cl)c1)[C@@H]1CCCC[C@H]1N1CCCCCCC1`, for which the Ki on Mu-type opioid receptor was found to be 880 nM; in assay [1], 3.1 nM.
In the assay on Rattus norvegicus [3], `CN(C(=O)COc1cc(Cl)c(Cl)c(Cl)c1Cl)[C@@H]1CCCC[C@H]1N1CCCCCCC1.Cl` had an MPE50 of over 300 mg/kg.
As to `CN(C(=O)COc1ccccc1)[C@@H]1CCCC[C@H]1N1CCCC1`, the Ki at Mu-type opioid receptor is over 1000 nM; in assay [1] it was 360 nM.
`CN(C(=O)COc1cc(Cl)c(Cl)c(Cl)c1)[C@@H]1CCCC[C@H]1N1CCCCCCC1.Cl`: the MPE50 in the assay with Rattus norvegicus [3] is over 100 mg/kg.
For `CN(C(=O)COc1ccc([N+](=O)[O-])c(C(F)(F)F)c1)[C@@H]1CCCC[C@H]1N1CCCC1`, the Ki on Mu-type opioid receptor was over 1000 nM; in assay [1], 150 nM.
The molecule `CN(C(=O)COc1c(Cl)cccc1Cl)[C@@H]1CCCC[C@H]1N1CCCC1.Cl` returned an MPE50 with Rattus norvegicus [3] of 110 mg/kg.
On to `CN(C(=O)COc1cc(Cl)c(Cl)c(Cl)c1)[C@@H]1CCCC[C@H]1N1CCCC1`, for which the Ki worked out at 140 nM at Mu-type opioid receptor and 12 nM in assay [1].
For the molecule `CN(C(=O)CCc1c[nH]c2ccccc12)[C@@H]1CCCC[C@H]1N1CCCC1`, the Ki (on Mu-type opioid receptor; in assay [1]) was over 1000 nM throughout.
On to `CN(C(=O)COc1cc(Cl)c(Cl)c(Cl)c1Cl)[C@@H]1CCCC[C@H]1N1CCCCCC1`, for which the Ki was 720 nM at Mu-type opioid receptor and 6.4 nM in assay [1].
In turn, `CN(C(=O)COc1cc(Cl)c(Cl)c(Cl)c1Cl)[C@@H]1CCCC[C@H]1N1CCCCCC1.Cl` returned an MPE50 in the assay with Rattus norvegicus [3] of over 300 mg/kg.
`CN(C(=O)COc1cc(Cl)cc(Cl)c1)[C@@H]1CCCC[C@H]1N1CCCCCC1.Cl` displayed an MPE50 in the assay on Rattus norvegicus [3] of over 100 mg/kg.
Consider `CN(C(=O)COc1ccc([N+](=O)[O-])c(C(F)(F)F)c1)[C@@H]1CCCC[C@H]1N1CCCC1.Cl`, for which the MPE50 with Rattus norvegicus [3] was over 100 mg/kg.
`CN(C(=O)COc1c(Cl)cccc1Cl)[C@@H]1CCCC[C@H]1N1CCCC1`: the figures for the Ki (at Mu-type opioid receptor; in assay [1]) were 4000 nM and 2100 nM, respectively.
The corresponding values for `CN(C(=O)COc1c(Cl)cc(Cl)cc1Cl)[C@@H]1CCCC[C@H]1N1CCCC1` are over 10000 nM and over 10000 nM.
The corresponding values for `CN(C(=O)COc1ccc(Cl)cc1)[C@@H]1CCCC[C@H]1N1CCCC1` are 2000 nM and 300 nM.
Regarding `CN(C(=O)COc1ccc(Cl)cc1)[C@@H]1CCCC[C@H]1N1CCCC1.Cl`, the values for the MPE50 with Rattus norvegicus [3] and in the assay on Rattus norvegicus [4] were 59 mg/kg and 210 mg/kg, respectively.
With `CN(C(=O)COc1ccc(Cl)c(Cl)c1)[C@@H]1CCCC[C@H]1N1CCCC1`, the Ki at Mu-type opioid receptor worked out at 620 nM; in assay [1], 35 nM.
Take `CN(C(=O)COc1cc(Cl)c(Cl)c(Cl)c1Cl)[C@@H]1CCCC[C@H]1N1CCCCCCC1`: the Ki on Mu-type opioid receptor was determined as 3600 nM; in assay [1] it was 5.6 nM.
